{
  "source": "patent US20140377219A1",
  "about": "“HIV INHIBITORS” (New york Blood Center, Inc., priority 2011, published 2014)",
  "key": {"[1]": {"test_system": "NL4-3-HXB2-Luc pseudotyped virus expressing Env of the HIV-1HxB2 (X4)", "details": "read-out: TZM-bl cells IC50 (μM ± SD), single-cycle assay"}, "[2]": {"test_system": "NL4-3-HXB2-Luc pseudotyped virus expressing Env of the HIV-1HxB2 (X4)", "assay": "microbe, parasite or virus in culture", "details": "Human immunodeficiency virus 1, HXB2|NL43, TZM-bl, read-out: TZM-bl cells IC50 (μM ± SD)"}},
  "note": "Read-outs that look alike come from different tables or passages of the source.",
  "data": [
    {"smiles": "CN1CCN(C(=O)CNC(=O)CCC(=O)Nc2ccc(Cl)cc2)CC1", "note": "[Compound 47, N^1-(4-chlorophenyl)-N^4-(2-(4-methylpiperazin-1-yl)-2-oxoethyl)succinamide .HCOOH]", "values": [
      {"measurement": "IC50", "setting": "[1]", "value": "9 ± 0.4", "unit": "µM"}
    ]},
    {"smiles": "CC1CCCN(c2ccccc2CNC(=O)CCC(=O)Nc2ccc(Cl)cc2)C1", "note": "(stereo not shown) [Compound 45, N^1-(4-chlorophenyl)-N^4-(2-(3-methylpiperidin-1-yl)benzyl)succinamide]", "values": [
      {"measurement": "IC50", "setting": "[2]", "value": "> 97", "unit": "µM"}
    ]},
    {"smiles": "CCC(CN1CCOCC1)NC(=O)CCC(=O)Nc1ccc(Cl)cc1", "note": "(stereo not shown) [Compound 46, N^1-(4-chlorophenyl)-N^4-(1-morpholinobutan-2-yl)succinamide]", "values": [
      {"measurement": "IC50", "setting": "[2]", "value": "> 109", "unit": "µM"}
    ]},
    {"smiles": "Cc1nc(C(NC(=O)CCC(=O)Nc2ccc(Cl)cc2)C2CCCCN2)sc1CO.Cl", "note": "(stereo not shown) [Compound 51, N^1-(4-chlorophenyl)-N^4-((5-(hydroxymethyl)-4-methylthiazol-2-yl)(piperidin-2-yl)methyl)succinamide.HCl]", "values": [
      {"measurement": "IC50", "setting": "[1]", "value": "~20", "unit": "µM"}
    ]},
    {"smiles": "Cc1nccn1CCCNC(=O)CCC(=O)Nc1ccc(Cl)cc1", "note": "[Compound 49, N^1-(4-chlorophenyl)-N^4-(3-(2-methyl-1H-imidazol-1-yl)propyl)succinamide. HCOOH]", "values": [
      {"measurement": "IC50", "setting": "[1]", "value": "39.3 ± 4.2", "unit": "µM"}
    ]},
    {"smiles": "Cc1nc2ncccn2c1CN1CCC(NC(=O)CCC(=O)Nc2ccc(Cl)cc2)CC1", "note": "[Compound 50, N^1-(4-chlorophenyl)-N^4-(1-((2-methylimidazo[1,2-a]pyrimidin-3-yl)methyl)piperidin-4-yl)succinamide]", "values": [
      {"measurement": "IC50", "setting": "[2]", "value": "> 88", "unit": "µM"}
    ]},
    {"smiles": "CC(C)c1nccn1CCCNC(=O)CCC(=O)Nc1ccc(Cl)cc1", "note": "[Compound 48, N^1-(4-chlorophenyl)-N^4-(3-(2-isopropyl-1H-imidazol-1-yl)propyl)succinamide. HCOOH]", "values": [
      {"measurement": "IC50", "setting": "[1]", "value": "~71", "unit": "µM"}
    ]}
  ]
}
